Results: US9868763B2, “Modulators of protease activated receptors” (The University of Queensland, priority 2011, dated 2018)

Amino acid sequences for entries named in this document (tags omitted). Residues count along the entry.
UniProt P55085, 26-397 limits assumed: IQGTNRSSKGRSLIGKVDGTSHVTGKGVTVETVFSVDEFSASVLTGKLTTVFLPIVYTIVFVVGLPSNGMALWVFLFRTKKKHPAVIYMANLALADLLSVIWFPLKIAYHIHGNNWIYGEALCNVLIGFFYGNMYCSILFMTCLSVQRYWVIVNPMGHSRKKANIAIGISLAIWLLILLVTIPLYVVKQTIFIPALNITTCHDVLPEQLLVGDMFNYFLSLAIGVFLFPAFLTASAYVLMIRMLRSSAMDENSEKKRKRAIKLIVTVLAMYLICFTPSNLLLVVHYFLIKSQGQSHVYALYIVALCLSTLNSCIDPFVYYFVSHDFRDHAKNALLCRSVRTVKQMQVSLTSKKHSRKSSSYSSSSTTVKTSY

Target: PAR2 (Homo sapiens, UniProt P55085)
Test: PAR2 activation: intracellular Ca2+ release (agonist) in HT29 cells
Details: agonist or partial agonist of Ca2+ release in HT29 cells

SMILES	EC50
CC[C@H](C)[C@H](NC(=O)[C@H](CC1CCCCC1)NC(=O)c1ccno1)C(=O)NCc1cccc(C(=O)N[C@@H](CCCN)C(N)=O)c1	200 nM
CC[C@H](C)[C@H](NC(=O)[C@H](CC1CCCCC1)NC(=O)c1ccno1)C(=O)NCc1cccc(C(=O)N[C@@H](CCN)C(N)=O)c1	200 nM
